The record followed here is patent publication US11945807B2, “Splicing modulator antibody-drug conjugates and methods of use” (EISAI R&D MANAGEMENT CO., LTD., priority 2018, dated 2024).

The test system of this assay is N87 cells. The experiment in a line: Cell viability CellTiter-Glo, N87. The format is cell-based, human.

Consider “TDM1: "treated intravenously with vehicle or 10 mg/kg trastuzumab, TDM1, or an exemplary HER2-ADC" [reference compound]”, for which the “Rmin % NCI-N87 (in vitro)” value was −37%.
